{"sequences": {"note": "Sequences of proteins named here, by UniProt entry; tags and fusion partners are left off.", "UniProt P18031, whole entry": "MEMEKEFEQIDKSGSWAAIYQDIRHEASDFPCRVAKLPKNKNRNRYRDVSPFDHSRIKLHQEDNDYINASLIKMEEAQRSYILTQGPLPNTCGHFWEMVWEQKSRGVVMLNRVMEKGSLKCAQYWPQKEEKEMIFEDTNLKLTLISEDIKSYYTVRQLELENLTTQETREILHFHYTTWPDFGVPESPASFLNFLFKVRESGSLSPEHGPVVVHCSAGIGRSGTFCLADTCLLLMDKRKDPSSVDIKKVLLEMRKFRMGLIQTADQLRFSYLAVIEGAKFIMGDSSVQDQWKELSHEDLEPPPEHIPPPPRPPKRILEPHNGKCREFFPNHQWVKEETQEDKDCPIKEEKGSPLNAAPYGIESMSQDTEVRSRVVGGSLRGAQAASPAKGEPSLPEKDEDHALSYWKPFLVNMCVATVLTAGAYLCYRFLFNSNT"}, "source": "patent US20060070135A1", "about": "“Compositions and methods for inhibiting the enzymatic activity of PTP-1B” (priority 1998, published 2006)", "biological_target": "human PTP-1B (PTP-1B-GST fusion protein) (Homo sapiens, UniProt P18031)", "test": "Cell-free PTP-1B phosphatase assay (malachite green, ppC SRC 60 phosphopeptide substrate)", "settings": "read-out: IC50 avg. value (μM) Cell-free assay, ppC SRC 60 substrate, 15 min at room temperature", "note": "Some compounds may have been tested in ways that are not shown here.", "data": [{"smiles": "O=[N+]([O-])c1cc2[nH]c3cc([N+](=O)[O-])c([N+](=O)[O-])cc3c2cc1[N+](=O)[O-]", "values": [{"measurement": "IC50", "result": 0.56, "unit": "µM"}]}]}
